Chains of the proteins cited; added tags and fusions are not shown. Chains listed by the source or under a name are the forms on record and can include a tag or linker.
human ROR1-hFc fusion protein (extracellular domain), one chain, as listed by the source limits assumed: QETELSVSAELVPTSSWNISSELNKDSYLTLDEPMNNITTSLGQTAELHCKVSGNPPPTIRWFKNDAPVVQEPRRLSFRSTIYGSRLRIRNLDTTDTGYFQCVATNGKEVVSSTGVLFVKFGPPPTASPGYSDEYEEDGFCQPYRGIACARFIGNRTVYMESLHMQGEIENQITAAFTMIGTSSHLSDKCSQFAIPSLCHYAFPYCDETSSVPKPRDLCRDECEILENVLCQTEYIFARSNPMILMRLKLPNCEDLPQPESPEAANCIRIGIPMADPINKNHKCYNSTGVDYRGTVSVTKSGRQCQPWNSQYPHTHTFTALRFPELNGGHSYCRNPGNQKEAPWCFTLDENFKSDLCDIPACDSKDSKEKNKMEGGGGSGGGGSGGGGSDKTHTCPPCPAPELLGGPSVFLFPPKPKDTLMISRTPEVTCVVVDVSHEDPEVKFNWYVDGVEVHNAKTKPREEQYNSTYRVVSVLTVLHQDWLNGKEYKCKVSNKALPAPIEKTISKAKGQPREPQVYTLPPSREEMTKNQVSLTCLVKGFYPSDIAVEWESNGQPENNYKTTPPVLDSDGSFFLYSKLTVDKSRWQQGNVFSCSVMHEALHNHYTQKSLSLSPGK
human ROR2-hFc fusion protein (extracellular domain), one chain, as listed by the source limits assumed: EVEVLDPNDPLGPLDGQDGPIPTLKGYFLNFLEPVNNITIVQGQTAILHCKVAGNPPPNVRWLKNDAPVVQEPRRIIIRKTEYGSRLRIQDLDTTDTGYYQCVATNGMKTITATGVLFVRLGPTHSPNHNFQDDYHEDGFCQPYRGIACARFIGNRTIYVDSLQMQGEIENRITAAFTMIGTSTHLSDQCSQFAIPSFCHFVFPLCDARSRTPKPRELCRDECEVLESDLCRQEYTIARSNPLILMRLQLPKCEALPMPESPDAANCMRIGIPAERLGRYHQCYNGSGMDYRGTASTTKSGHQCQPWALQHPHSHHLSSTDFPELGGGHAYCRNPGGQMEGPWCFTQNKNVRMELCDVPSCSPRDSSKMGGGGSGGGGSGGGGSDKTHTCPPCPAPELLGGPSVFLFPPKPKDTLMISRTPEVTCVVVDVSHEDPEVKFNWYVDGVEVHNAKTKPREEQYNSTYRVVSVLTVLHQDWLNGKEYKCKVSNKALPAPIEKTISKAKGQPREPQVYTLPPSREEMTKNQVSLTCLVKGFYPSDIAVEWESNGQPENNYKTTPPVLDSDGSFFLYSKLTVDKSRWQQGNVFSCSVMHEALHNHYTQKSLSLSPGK

In US20230203155A1 (ALMAC DISCOVERY, published 2023):

Assays:
[1] = target: T1, human ROR1-hFc fusion protein (extracellular domain) (human); assay: SPR, ROR1-hFc on chip
T1 construct: Whole entry 'human ROR1-Fc (CHO)'; also called hROR1; huROR1-Fc

[2] = target: T2, human ROR2-hFc fusion protein (extracellular domain) (human); assay: SPR, ROR2-hFc on chip
T2 construct: Whole entry 'human ROR2-Fc (CHO)'; also called hROR2

[3] = target: T3, human ROR1 on the surface of ROR1hi human cancer cell lines (human, UniProt Q01973); assay: flow cytometry, A549 (ROR1hi) against A427 (ROR1low) cells, PE-anti-human antibody
T3 construct: whole, on cells; Cell line is named under assay; also called cell surface ROR1

[4] = target: T1, human ROR1-hFc fusion protein …; assay: SPR, ROR1-hFc on chip; remark: listed apart in the source

Kd [1]: 0.38 nM
koff [1]: 0.001 s⁻¹
kon [1]: 2.68e+06 M⁻¹ s⁻¹
binding result [2]: no binding
binding result [3]: binds
B1: P3A1 hFc-MMAE (Fc fusion)
chain: TRVDQTPRTATKETGESLTINCVLTDTSYGLYSTSWFRKNPGTTDWERMSIGGRYVESVNKGAKSFSLRIKDLTVADSATYYCKAREARHPWLRQWYDGAGTVLTVNGGGGSGGGGSGGGGS[human IgG1 Fc with changes cut from this listing]
modifications: MC vc PAB MMAE on engineered Cys S252C (Kabat); DAR 2
notes: also called P3A1 hFc-vcMMAE

Kd [4]: 0.084 nM
koff [4]: 0.000564 s⁻¹
kon [4]: 1.07e+07 M⁻¹ s⁻¹
Kd [1]: 0.084 nM
koff [1]: 0.000564 s⁻¹
kon [1]: 1.07e+07 M⁻¹ s⁻¹
binding result [2]: no binding
B2: P3A1 hFc (Fc fusion)
chain: TRVDQTPRTATKETGESLTINCVLTDTSYGLYSTSWFRKNPGTTDWERMSIGGRYVESVNKGAKSFSLRIKDLTVADSATYYCKAREARHPWLRQWYDGAGTVLTVNGGGGSGGGGSGGGGS[human IgG1 Fc with changes cut from this listing]
notes: also called P3A1 hFc (S252C)

Like-named read-outs stand apart in the source and are kept apart here. One block for each binder: values may come before it.
